Our source for the activity change, negative = inhibition values is PubChem BioAssay AID1259415 (National Center for Advancing Translational Sciences (NCATS), 2018).

This is a selection; strong and weak results do not stand in their true shares. Inconclusive results are not listed. Activity calls are given as the source filed them. No stated cut-off is given here; in the data, active means activity change below about -60%; inconclusive means no clear call, values can overlap the other calls; inactive means above about -39%.
On the % scale 0 is the no-effect control and ±100 the full control effect.

The nature of the assay: qHTS Assay for inhibitors of the human cytomegalovirus (HCMV). As to conditions: HFF cells, HCMV-luciferase reporter, 72 h; at 57.5 µM; stronger effect = lower value. An excerpt: NCGC Assay Overview: Infection with human cytomegalovirus (HCMV) continues to pose significant threats for pregnant women and immunocompromised hosts. HCMV causes serious morbidity and mortality in transplant recipients, and congenital HCMV is the leading infectious cause of mental retardation and deafness in children. In the 1990s, the annual costs associated with the disease burden of congenital CMV were estimated at around $2 billion. A HCMV vaccine is not available yet and HCMV therapies result in intolerable side effects and emergence of drug resistant viruses. […] Towards this goal we have developed and characterized a luciferase HCMV reporter that was initially used in 96 well plates and then optimized to 1536-well plates for utilization in screening of the MLSMR collection, the NGCG diversity collection and the NCGC Pharmaceutical Collection of approved and investigational drugs.
NCGC Assay Protocol Summary:
This is a cell-based assay for HCMV inhibition in HFFs cells. The screening used 2 compound doses and the HCMV-luciferase at MOI of 1 PFU/cell. Cells were treated and infected with HCMV. At 72 h post infection cell lysates were collected and luciferase activity was determined using the Glomax-Multi + Detection System (Promega, Madison, WI). Data were normalized to the controls for basal activity (buffer only) and known HCMV inhibitors Salinmoycin. […]
On the technique in general: Quantitative high-throughput screening tests each substance at several concentrations.
`CCC(=O)N(c1ccccc1)C1(COC)CCN(CCc2cccs2)CC1`: the activity change, negative = inhibition is inactive: -7.67%.
As for `CCC(=O)N(c1ccccc1)C1(COC)CCN(CCn2nnn(CC)c2=O)CC1`, the figure is inactive: 1.55%.
